Assay results: patent US8946439B2, “Amide compounds, compositions and uses thereof” (Evotec AG, priority 2008, dated 2015)
Like-named read-outs stand apart in the source and are kept apart here.

The chains behind the UniProt entries cited, without tags or fusion partners.
UniProt P56373, whole entry: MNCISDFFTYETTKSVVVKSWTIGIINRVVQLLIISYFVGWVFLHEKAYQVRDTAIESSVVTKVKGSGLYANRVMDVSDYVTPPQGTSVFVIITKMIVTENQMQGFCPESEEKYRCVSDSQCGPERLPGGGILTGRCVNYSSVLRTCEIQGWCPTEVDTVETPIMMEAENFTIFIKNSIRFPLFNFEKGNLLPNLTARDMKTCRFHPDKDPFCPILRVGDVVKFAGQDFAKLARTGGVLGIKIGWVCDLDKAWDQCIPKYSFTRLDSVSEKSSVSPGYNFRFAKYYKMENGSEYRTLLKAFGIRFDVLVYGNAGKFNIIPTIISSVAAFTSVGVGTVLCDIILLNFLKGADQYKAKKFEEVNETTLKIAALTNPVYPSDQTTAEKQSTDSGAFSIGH
UniProt Q9UBL9, whole entry: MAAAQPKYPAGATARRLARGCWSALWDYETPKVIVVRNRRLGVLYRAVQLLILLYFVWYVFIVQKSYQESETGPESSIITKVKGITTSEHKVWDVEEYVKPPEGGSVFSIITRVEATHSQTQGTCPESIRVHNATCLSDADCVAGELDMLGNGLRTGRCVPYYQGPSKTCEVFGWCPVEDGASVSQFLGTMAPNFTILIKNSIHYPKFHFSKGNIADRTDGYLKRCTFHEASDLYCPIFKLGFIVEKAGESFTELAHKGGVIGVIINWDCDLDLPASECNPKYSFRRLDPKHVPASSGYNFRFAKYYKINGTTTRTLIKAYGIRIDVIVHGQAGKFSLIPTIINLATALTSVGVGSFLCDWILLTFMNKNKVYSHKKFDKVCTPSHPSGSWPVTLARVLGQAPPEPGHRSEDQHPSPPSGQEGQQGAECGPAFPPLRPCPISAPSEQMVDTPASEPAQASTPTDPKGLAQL

Legend:
[1] = target: hP2X3 (Homo sapiens, UniProt P56373); test: Calcium uptake assay (P2X antagonist assay), P2X3 homomer
[2] = target: hP2X2/3H (Homo sapiens, UniProt P56373+Q9UBL9); test: Calcium uptake assay (P2X antagonist assay), P2X2/3 heteromer

Structure (SMILES)	IC50 ([1]; read-out: IC50 hP2X3, Ca influx (calcium uptake assay)) [nM]	IC50 ([2]; read-out: IC50 hP2X2/3H, Ca influx (calcium uptake assay)) [nM]	IC50 ([1]; read-out: IC50 hP2X3 (nM), Ca Influx, calcium uptake assay) [nM]	IC50 ([2]; read-out: IC50 hP2X2/3H (nM), Ca Influx, calcium uptake assay) [nM]
Cc1ccc(CNC(=O)c2cc(-c3ccc(Br)cc3)cc(S(C)(=O)=O)c2)cn1	100 to 500	501 to 1000		
Cc1ccc(-c2cc(C(=O)NCc3ccc(C(F)(F)F)nc3)cc(S(C)(=O)=O)c2)nc1			< 100	100 to 500
